Each compound was assayed against Recombinant heterodimeric HCV NS3/NS4A protease (strain 1a) (Hepatitis C virus genotype 1a, UniProt P27958) (assay: Spectrophotometric assay for HCV protease inhibitory activity). Settings: Table 3, range.
Type: biochemical

Amino acid sequences for entries named in this document (tags omitted). Residues count along the entry.
UniProt P27958, 1027-1657: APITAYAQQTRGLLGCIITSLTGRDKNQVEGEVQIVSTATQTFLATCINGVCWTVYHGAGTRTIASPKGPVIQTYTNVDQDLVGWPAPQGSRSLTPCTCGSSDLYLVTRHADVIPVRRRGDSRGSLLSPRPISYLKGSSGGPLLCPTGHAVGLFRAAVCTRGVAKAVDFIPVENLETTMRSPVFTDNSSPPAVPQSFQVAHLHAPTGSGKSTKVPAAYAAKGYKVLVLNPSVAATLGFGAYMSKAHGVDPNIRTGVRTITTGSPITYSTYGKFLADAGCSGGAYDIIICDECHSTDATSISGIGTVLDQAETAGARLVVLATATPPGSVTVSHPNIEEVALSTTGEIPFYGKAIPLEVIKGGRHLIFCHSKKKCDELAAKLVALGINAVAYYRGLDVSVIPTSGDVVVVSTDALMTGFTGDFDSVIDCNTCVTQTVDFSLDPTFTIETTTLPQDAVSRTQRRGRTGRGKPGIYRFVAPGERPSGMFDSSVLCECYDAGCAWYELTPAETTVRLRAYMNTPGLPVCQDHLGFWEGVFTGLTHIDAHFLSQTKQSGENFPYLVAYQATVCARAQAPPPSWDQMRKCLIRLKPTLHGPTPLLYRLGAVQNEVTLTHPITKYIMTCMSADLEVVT
UniProt P27958, 1658-1711: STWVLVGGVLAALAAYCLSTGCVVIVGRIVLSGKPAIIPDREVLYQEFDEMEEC

| Compound | Ki [nM] |
| --- | --- |
| CCCNC(=O)C(=O)C(CCC)NC(=O)[C@@H]1[C@@H]2[C@H](CN1C(=O)[C@@H](NC(=O)N[C@H](CNS(C)(=O)=O)[C@@H](C)CC)C(C)(C)C)C2(C)C (stereo partly drawn) [Compound 12022] | > 250 |
| CC[C@H](C)[C@@H](CNS(C)(=O)=O)NC(=O)N[C@H](C(=O)N1C[C@H]2[C@@H]([C@H]1C(=O)NC(CC1CCC1)C(=O)C(N)=O)C2(C)C)C(C)(C)C (stereo partly drawn) [Compound 12023] | ≤ 75 |
| CC[C@H](C)[C@@H](CNS(C)(=O)=O)NC(=O)N[C@H](C(=O)N1C[C@H]2[C@@H]([C@H]1C(=O)NC(CC1CC1)C(=O)C(N)=O)C2(C)C)C(C)(C)C (stereo partly drawn) [Compound 12024] | 75 to 250 |
| CCCC(NC(=O)[C@@H]1[C@@H]2[C@H](CN1C(=O)[C@@H](NC(=O)N[C@H](CNS(C)(=O)=O)[C@@H](C)CC)C(C)(C)C)C2(C)C)C(=O)C(=O)NCC (stereo partly drawn) [Compound 12025] | > 250 |

Same assay, conditions: Table 4, range

| Compound | Ki [nM] |
| --- | --- |
| C=CCNC(=O)C(=O)C(CCC)NC(=O)[C@@H]1[C@@H]2[C@H](CN1C(=O)[C@@H](NC(=O)N[C@H](CN(C)C(C)=O)C(C)(C)C)C(C)(C)C)C2(C)C (stereo partly drawn) [Compound 13001] | ≤ 75 |
| CC(=O)N(C)C[C@@H](NC(=O)N[C@H](C(=O)N1C[C@H]2[C@@H]([C@H]1C(=O)NC(CC1CCC1)C(=O)C(N)=O)C2(C)C)C(C)(C)C)C(C)(C)C (stereo partly drawn) [Compound 13002] | ≤ 75 |
| CCCNC(=O)C(=O)C(CCC)NC(=O)[C@@H]1[C@@H]2[C@H](CN1C(=O)[C@@H](NC(=O)N[C@H](CNC(=O)c1ccccc1)C(C)C)C(C)(C)C)C2(C)C (stereo partly drawn) [Compound 13003] | 75 to 250 |
| CC(C)(C)[C@H](NC(=O)N[C@H](CNC(=O)c1ccccn1)C(C)(C)C)C(=O)N1C[C@H]2[C@@H]([C@H]1C(=O)NC(CC1CC1)C(=O)C(N)=O)C2(C)C (stereo partly drawn) [Compound 13004] | ≤ 75 |
| C=CCNC(=O)C(=O)C(CCC)NC(=O)[C@@H]1[C@@H]2[C@H](CN1C(=O)[C@@H](NC(=O)N[C@H](CNC(=O)c1ccccc1)C(C)C)C(C)(C)C)C2(C)C (stereo partly drawn) [Compound 13008] | ≤ 75 |
| CC(C)[C@@H](CNC(=O)c1ccccc1)NC(=O)N[C@H](C(=O)N1C[C@H]2[C@@H]([C@H]1C(=O)NC(CC1CCC1)C(=O)C(N)=O)C2(C)C)C(C)(C)C (stereo partly drawn) [Compound 13009] | ≤ 75 |
| C=CCNC(=O)C(=O)C(CCC(F)(F)F)NC(=O)[C@@H]1[C@@H]2[C@H](CN1C(=O)[C@@H](NC(=O)N[C@H](CN(C)C(C)=O)C(C)(C)C)C(C)(C)C)C2(C)C (stereo partly drawn) [Compound 13010] | ≤ 75 |
| CC(=O)N(C)C[C@@H](NC(=O)N[C@H](C(=O)N1C[C@H]2[C@@H]([C@H]1C(=O)NC(CC1CC1)C(=O)C(N)=O)C2(C)C)C(C)(C)C)C(C)(C)C (stereo partly drawn) [Compound 13011] | ≤ 75 |
| C=CCNC(=O)C(=O)C(CC1CCC1)NC(=O)[C@@H]1[C@@H]2[C@H](CN1C(=O)[C@@H](NC(=O)N[C@H](CN(C)C(C)=O)C(C)(C)C)C(C)(C)C)C2(C)C (stereo partly drawn) [Compound 13012] | 75 to 250 |
| CN(C[C@@H](NC(=O)N[C@H](C(=O)N1C[C@H]2[C@@H]([C@H]1C(=O)NC(CC1CCC1)C(=O)C(N)=O)C2(C)C)C(C)(C)C)C(C)(C)C)C(=O)C1CC1 (stereo partly drawn) [Compound 13013] | ≤ 75 |
| C=CCNC(=O)C(=O)C(CCC)NC(=O)[C@@H]1[C@@H]2[C@H](CN1C(=O)[C@@H](NC(=O)N[C@H](CN(C)C(=O)C1CC1)C(C)(C)C)C(C)(C)C)C2(C)C (stereo partly drawn) [Compound 13014] | 75 to 250 |
| C=CCNC(=O)C(=O)C(CCC(F)(F)F)NC(=O)[C@@H]1[C@@H]2[C@H](CN1C(=O)[C@@H](NC(=O)N[C@H](CN(C)C(=O)C1CC1)C(C)(C)C)C(C)(C)C)C2(C)C (stereo partly drawn) [Compound 13015] | 75 to 250 |
| CNC(=O)C(=O)C(CC1CC1)NC(=O)[C@@H]1[C@@H]2[C@H](CN1C(=O)[C@@H](NC(=O)N[C@H](CN(C)C(C)=O)C(C)(C)C)C(C)(C)C)C2(C)C (stereo partly drawn) [Compound 13016] | ≤ 75 |
| C=CCNC(=O)C(=O)C(CC1CC1)NC(=O)[C@@H]1[C@@H]2[C@H](CN1C(=O)[C@@H](NC(=O)N[C@H](CN(C)C(=O)C1CC1)C(C)(C)C)C(C)(C)C)C2(C)C (stereo partly drawn) [Compound 13017] | > 250 |
| C=CCNC(=O)C(=O)C(CC1CC1)NC(=O)[C@@H]1[C@@H]2[C@H](CN1C(=O)[C@@H](NC(=O)N[C@H](CN(C)C(C)=O)C(C)(C)C)C(C)(C)C)C2(C)C (stereo partly drawn) [Compound 13018] | ≤ 75 |
| CNC(=O)C(=O)C(CCC(F)(F)F)NC(=O)[C@@H]1[C@@H]2[C@H](CN1C(=O)[C@@H](NC(=O)N[C@H](CN(C)C(C)=O)C(C)(C)C)C(C)(C)C)C2(C)C (stereo partly drawn) [Compound 13019] | ≤ 75 |
| CC(C)(C)[C@H](NC(=O)N[C@H](CNC(=O)C(F)(F)F)C(C)(C)C)C(=O)N1C[C@H]2[C@@H]([C@H]1C(=O)NC(CC1CC1)C(=O)C(N)=O)C2(C)C (stereo partly drawn) [Compound 13020] | ≤ 75 |
| CC(C)(C)[C@H](NC(=O)N[C@H](CNC(=O)c1ccccc1)C(C)(C)C)C(=O)N1C[C@H]2[C@@H]([C@H]1C(=O)NC(CC1CC1)C(=O)C(N)=O)C2(C)C (stereo partly drawn) [Compound 13021] | ≤ 75 |
| CN(C[C@@H](NC(=O)N[C@H](C(=O)N1C[C@H]2[C@@H]([C@H]1C(=O)NC(CC1CC1)C(=O)C(N)=O)C2(C)C)C(C)(C)C)C(C)(C)C)C(=O)c1ccccn1 (stereo partly drawn) [Compound 13022] | ≤ 75 |
| CN(C[C@@H](NC(=O)N[C@H](C(=O)N1C[C@H]2[C@@H]([C@H]1C(=O)NC(CC1CC1)C(=O)C(N)=O)C2(C)C)C(C)(C)C)C(C)(C)C)C(=O)C(F)(F)F (stereo partly drawn) [Compound 13023] | ≤ 75 |
| C=CCNC(=O)C(=O)C(CCC)NC(=O)[C@@H]1[C@@H]2[C@H](CN1C(=O)[C@@H](NC(=O)N[C@H](CN(C)C(=O)C(F)(F)F)C(C)(C)C)C(C)(C)C)C2(C)C (stereo partly drawn) [Compound 13024] | ≤ 75 |
| CN(C[C@@H](NC(=O)N[C@H](C(=O)N1C[C@H]2[C@@H]([C@H]1C(=O)NC(CC1CC1)C(=O)C(N)=O)C2(C)C)C(C)(C)C)C(C)(C)C)C(=O)c1ccccc1 (stereo partly drawn) [Compound 13025] | ≤ 75 |
| CC(C)(C)[C@H](NC(=O)N[C@H](CNC(=O)c1cnccn1)C(C)(C)C)C(=O)N1C[C@H]2[C@@H]([C@H]1C(=O)NC(CC1CC1)C(=O)C(N)=O)C2(C)C (stereo partly drawn) [Compound 13026] | ≤ 75 |
| CN(C[C@@H](NC(=O)N[C@H](C(=O)N1C[C@H]2[C@@H]([C@H]1C(=O)NC(CC1CCC1)C(=O)C(N)=O)C2(C)C)C(C)(C)C)C(C)(C)C)C(=O)C(F)(F)F (stereo partly drawn) [Compound 13027] | ≤ 75 |
| C#CCCC(NC(=O)[C@@H]1[C@@H]2[C@H](CN1C(=O)[C@@H](NC(=O)N[C@H](CN(C)C(=O)C(F)(F)F)C(C)(C)C)C1CCCCC1)C2(C)C)C(=O)C(=O)NCC=C (stereo partly drawn) [Compound 13028] | ≤ 75 |
| C#CCCC(NC(=O)[C@@H]1[C@@H]2[C@H](CN1C(=O)[C@@H](NC(=O)N[C@H](CN(C)C(=O)C(F)(F)F)C(C)(C)C)C1Cc3ccccc3C1)C2(C)C)C(=O)C(=O)NCC=C (stereo partly drawn) [Compound 13029] | ≤ 75 |
| CC(C)(C)[C@@H](CNC(=O)c1cnccn1)NC(=O)N[C@H](C(=O)N1C[C@H]2[C@@H]([C@H]1C(=O)NC(CC1CCC1)C(=O)C(N)=O)C2(C)C)C1CCCCC1 (stereo partly drawn) [Compound 13030] | ≤ 75 |
| CC(C)(C)[C@H](NC(=O)N[C@H](CNC(=O)c1cncnc1)C(C)(C)C)C(=O)N1C[C@H]2[C@@H]([C@H]1C(=O)NC(CC1CC1)C(=O)C(N)=O)C2(C)C (stereo partly drawn) [Compound 13031] | ≤ 75 |
| C=CCNC(=O)C(=O)C(CCC)NC(=O)[C@@H]1[C@@H]2[C@H](CN1C(=O)[C@@H](NC(=O)N[C@H](CN(C)C(=O)C(F)(F)F)C(C)(C)C)C1CCCCC1)C2(C)C (stereo partly drawn) [Compound 13032] | ≤ 75 |
